Data reported in ChEMBL document CHEMBL4414612, “Synthesis and Pharmacological Evaluation of 1-Phenyl-3-Thiophenylurea Derivatives as Cannabinoid Type-1 Receptor Allosteric Modulators” (J Med Chem, 2019).

Protein sequences, listed by entry. Tags and fused reporters are not part of them.
UniProt P21554, whole entry: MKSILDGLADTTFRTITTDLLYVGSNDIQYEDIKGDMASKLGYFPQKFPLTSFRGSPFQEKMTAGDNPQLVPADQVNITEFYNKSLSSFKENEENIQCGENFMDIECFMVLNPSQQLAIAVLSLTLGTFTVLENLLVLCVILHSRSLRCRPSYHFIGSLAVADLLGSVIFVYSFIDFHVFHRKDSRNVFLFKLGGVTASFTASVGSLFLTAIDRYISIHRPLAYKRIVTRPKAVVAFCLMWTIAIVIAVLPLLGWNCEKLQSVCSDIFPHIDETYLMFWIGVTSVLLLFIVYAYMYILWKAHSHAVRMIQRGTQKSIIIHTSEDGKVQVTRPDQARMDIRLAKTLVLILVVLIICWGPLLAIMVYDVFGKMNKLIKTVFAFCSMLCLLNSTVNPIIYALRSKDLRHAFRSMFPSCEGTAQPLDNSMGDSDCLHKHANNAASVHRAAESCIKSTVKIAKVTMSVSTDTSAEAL

Target: Cannabinoid receptor 1 (Homo sapiens, UniProt P21554)
Assay: Allosteric modulator activity at human CB1 receptor expressed in CHO-RD-HGA16 cells co-expressing Galpha16 assessed as suppression of 100 nM CP55,940-induced calcium mobilization pre-incubated for 15 mins by Calcium 5 dye based FLIPR assay relative to control
Format: functional, cell-based

O=C(Nc1ccc(Cl)cc1)Nc1cc(-c2ccccc2)ccn1
inhibition: 33%
